“And” between values parts separate entries of the source, which are not always exact repeats. Equal entries are not always repeated. Only a part is listed here, and it is no random draw. Some results for these compounds are left out of this collection, so the calls shown say nothing about other tests. Inconclusive results are not listed. The source made the active and inactive calls. Calls come from the whole dose curve; as a rule, active = well fitted inhibition curve with a large enough effect; inconclusive = small, poorly fitted or top-dose-only effect; inactive = no such curve, though single readings can be large or run the other way.
Molecular target: Glucagon-like peptide 1 receptor (Homo sapiens) (UniProt P43220)
Test: qHTS of GLP-1 Receptor Inverse Agonists (Inhibition Mode); note: nearly all actives have a fitted effect of over 55% in size
Conditions: HEK293 GLP-1R CRE-luciferase, luminescence, 24 h, GLP-1R form is constitutively active; at 38.3 µM (top of the series)
% is set by controls: 0 for no effect and ±100 for the full control effect.

Sequences of proteins named here, by UniProt entry; tags and fusion partners are left off.
UniProt P43220, whole entry: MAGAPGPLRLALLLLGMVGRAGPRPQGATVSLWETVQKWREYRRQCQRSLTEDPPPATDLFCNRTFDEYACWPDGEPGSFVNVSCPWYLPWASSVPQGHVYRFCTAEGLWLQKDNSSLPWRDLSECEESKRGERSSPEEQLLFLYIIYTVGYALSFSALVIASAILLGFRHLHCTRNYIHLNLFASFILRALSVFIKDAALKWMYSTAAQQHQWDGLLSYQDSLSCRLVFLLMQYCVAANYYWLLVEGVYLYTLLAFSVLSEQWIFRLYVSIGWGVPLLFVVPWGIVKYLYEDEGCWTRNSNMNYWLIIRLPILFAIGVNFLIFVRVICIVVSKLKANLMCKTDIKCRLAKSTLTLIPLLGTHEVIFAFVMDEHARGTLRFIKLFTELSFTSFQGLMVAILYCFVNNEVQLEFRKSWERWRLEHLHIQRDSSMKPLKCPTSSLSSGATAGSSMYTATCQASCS

Structure (SMILES) | activity change, negative = inhibition
COc1cc(C(=O)NCC2(N(C)C)CCCCC2)c([N+](=O)[O-])cc1OC | inactive: -1.35%
CN(C)C1(CNC(=O)c2ccc(Br)cc2)CCCCC1 | inactive: -37.5%
O=C(NCC1(N2CCCCC2)CCCCC1)c1cccc(Cl)c1 | inactive: -6.09%
COc1ccc(C(=O)NCC2(N(C)C)CCCCC2)cc1Cl | inactive: -21%
COc1ccc(Cl)cc1C(=O)NCC1(N(C)C)CCCCC1 | inactive: -19.9%
COc1cccc(C(=O)NCC2(N3CCCCC3)CCCCC2)c1 | inactive: 12.6%
COc1cccc(C(=O)NCC2(N3CCOCC3)CCCCC2)c1 | inactive: 15.2%
CN(C)c1cccc(C(=O)NCC2(N(C)C)CCCCC2)c1 | inactive: 0.49%
O=C(OCCN1CCCC1)C(O)(c1ccccc1)c1ccccc1 | inactive: 4.1%
CC(C)Oc1ccc(C(=O)NCC2(N(C)C)CCCCC2)cc1 | inactive: -4.02% and inactive: -7.11%
COc1ccc(Br)c(C(=O)NCC2(N3CCCCC3)CCCCC2)c1 | inactive: -20.1%
Cc1cccc(C(=O)NCC2(N(C)C)CCCCC2)c1 | inactive: -18%
COc1cc(C(=O)NCC2(N(C)C)CCCCC2)cc(OC)c1OC | inactive: 9.15%
C=C(C)C#CC(O)(C(=O)OC1CCN(C)CC1)c1ccccc1 (stereo unspecified) | inactive: 9.81%
CN1[C@@H]2CC[C@H]1CC(OC(=O)C(O)(c1ccccc1)c1ccccc1)C2 (stereo partly specified) | inactive: -28.4%
O=C(NCC1(N2CCCCC2)CCCCC1)c1cc([N+](=O)[O-])ccc1Cl | inactive: -24.5%

Structure (SMILES) | activity change, negative = inhibition
CN(C)C1(CNC(=O)c2ccccc2F)CCCCC1 | inactive: 3.72%
Cc1ccc(C(=O)NCC2(N3CCCCC3)CCCCC2)cc1 | inactive: -1.26%
CC(C)N1C(=O)CC2(CCN(CCOC(=O)C(O)(c3ccccc3)c3ccccc3)CC2)C1=O | inactive: -6.6%
COc1cc(SC)ccc1C(=O)NCC1(N(C)C)CCCCC1 | inactive: 2.92%
CCCCOc1ccccc1C(=O)NCC1(N(C)C)CCCCC1 | inactive: -18.8%
CN(C)c1ccc(C(=O)NCC2(N(C)C)CCCCC2)cc1 | inactive: -20.5%
CN(C)C1CCCC1OC(=O)C(O)(c1ccccc1)c1ccccc1 (stereo unspecified) | inactive: -9.3%
Cc1ccccc1C(=O)NCC1(N2CCCCC2)CCCCC1 | inactive: 7.95%
CN(C)C1(CNC(=O)c2ccccc2[N+](=O)[O-])CCCCC1 | inactive: -6.37%
O=C(NCC1(N2CCCCC2)CCCCC1)c1cccc(Br)c1 | inactive: 10.5%
Cc1cc(C(=O)NCC2(N3CCCCC3)CCCCC2)ccc1[N+](=O)[O-] | inactive: 12.8%
CCOc1cccc(C(=O)NCC2(N(C)C)CCCCC2)c1 | inactive: -12.5%
COc1ccc(C(=O)NCC2(N(C)C)CCCCC2)cc1 | inactive: 4.38%
O=C(NCC1(N2CCCCC2)CCCCC1)c1cc(F)c(F)cc1Cl | inactive: 3.4%
C=CCN1CCN(CCOC(=O)C(O)(c2ccccc2)c2ccccc2)CC1 | inactive: 0.905%
